# Values quoted from earlier work, collected in patent US11965206B2, “Method of dosing a patient with multiple drugs using adjusted phenotypes of CYP450 enzymes” (priority 2018, dated 2024).
# Chains of the proteins cited; added tags and fusions are not shown.
# UniProt P10635, whole entry: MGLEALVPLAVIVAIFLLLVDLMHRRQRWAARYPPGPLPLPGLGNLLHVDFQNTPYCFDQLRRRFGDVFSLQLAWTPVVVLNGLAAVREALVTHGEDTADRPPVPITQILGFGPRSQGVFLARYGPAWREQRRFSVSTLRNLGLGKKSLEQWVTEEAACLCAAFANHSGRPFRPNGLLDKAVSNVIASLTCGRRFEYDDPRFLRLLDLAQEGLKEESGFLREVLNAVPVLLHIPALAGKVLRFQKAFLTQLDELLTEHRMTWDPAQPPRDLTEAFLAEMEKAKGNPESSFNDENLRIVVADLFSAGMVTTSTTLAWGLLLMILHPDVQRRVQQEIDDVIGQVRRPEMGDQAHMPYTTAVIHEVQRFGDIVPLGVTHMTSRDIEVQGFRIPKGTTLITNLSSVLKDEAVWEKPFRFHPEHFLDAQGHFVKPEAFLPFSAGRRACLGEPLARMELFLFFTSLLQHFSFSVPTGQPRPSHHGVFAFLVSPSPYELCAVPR
# UniProt P05177, whole entry: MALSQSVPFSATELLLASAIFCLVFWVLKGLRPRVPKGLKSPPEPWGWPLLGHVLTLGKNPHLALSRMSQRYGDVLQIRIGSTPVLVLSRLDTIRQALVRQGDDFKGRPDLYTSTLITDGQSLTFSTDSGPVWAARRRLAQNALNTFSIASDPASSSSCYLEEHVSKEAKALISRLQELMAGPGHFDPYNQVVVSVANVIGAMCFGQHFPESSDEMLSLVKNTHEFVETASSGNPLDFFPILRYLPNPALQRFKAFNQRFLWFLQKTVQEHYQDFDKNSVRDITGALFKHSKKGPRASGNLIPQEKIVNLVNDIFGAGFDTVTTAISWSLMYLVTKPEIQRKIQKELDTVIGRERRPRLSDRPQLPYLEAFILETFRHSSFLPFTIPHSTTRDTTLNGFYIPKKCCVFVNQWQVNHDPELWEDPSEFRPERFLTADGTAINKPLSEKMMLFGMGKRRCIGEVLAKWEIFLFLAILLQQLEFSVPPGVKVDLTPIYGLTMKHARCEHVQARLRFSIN
# Experiments:
# [1] = target: CYP450 enzyme 2D6 (Homo sapiens, UniProt P10635); details: found in drug databases
# [2] = target: CYP450 enzyme 1A2 (Homo sapiens, UniProt P05177); details: found in drug databases
compound,measurement,setting,value
Cc1cc2c(s1)Nc1ccccc1N=C2N1CCN(C)CC1 [Zyprexa],substrate for 2D6,[1],substrate
same,substrate for 1A2,[2],substrate
